Yeast mating assay B: variants of the scFv Ab-14

Reference: Li et al. 2023, doi:10.1038/s41467-023-39022-2. File: FLAb, binding data.

Antigen: PDVDLGDISGINAS, a 14-residue peptide of the SARS-CoV-2 spike HR2 region.

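The starting antibody came from a phage panning campaign against this peptide. Designed CDR sequences, proposed from the first random library and measured here. Group labels follow the data file (En: ensemble of fine-tuned language models; GP: Gaussian process model; HC: hill climbing; Gen: genetic algorithm; Gibbs: Gibbs sampling; a sequence that several methods proposed may carry one label only). The assay is AlphaSeq: two haploid yeast populations carry antibody and antigen on their surface. Binding brings cells together so that they mate, and sequencing counts the barcode pairs among the diploids. The ratio of observed to expected reads was calibrated, replicate by replicate, on BCL2-family standards whose Kd was known from biolayer interferometry. Mating was done six times.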

Parent: Ab-14, a human scFv built as VH, three GGGGS repeats, VL. Only the CDRs of the light chain vary.
VH: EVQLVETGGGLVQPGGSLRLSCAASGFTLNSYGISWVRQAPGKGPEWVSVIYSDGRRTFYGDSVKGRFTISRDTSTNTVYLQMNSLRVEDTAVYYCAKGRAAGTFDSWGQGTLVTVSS
VL: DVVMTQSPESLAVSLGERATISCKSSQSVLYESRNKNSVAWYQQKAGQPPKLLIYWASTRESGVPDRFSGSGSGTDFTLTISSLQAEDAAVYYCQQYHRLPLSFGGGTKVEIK

Each variant is given by its three light chain CDRs, as the data file delimits them; those of the parent are KSSQSVLYESRNKNSVA, WASTRES, QQYHRLPLS.
This list holds designs with more than six substitutions.
The read-out is the apparent dissociation constant on a log10 scale (nM): the lower, the stronger.
An entry "n.d." has no value in the source: the pair was not observed among the diploids in that replicate. This suggests poor binding but is not conclusive.

| CDR-L1 | CDR-L2 | CDR-L3 | group | replicates, log10 nM | control signals |
|---|---|---|---|---|---|
| KVNQLMNIEQMNTKSVA | HTSTREN | QQYHRLPLS | En_HC | 1.03 0.88 0.34 0.47 0.28 0.77 | 0/18 |
| KFGQGVHVESIMHNSIA | QTSTREE | QQYDRLPLS | En_HC | 0.80 0.56 0.59 0.43 0.43 0.67 | 2/18 (2.84) |
| KLQQMWLYGSRNANSVA | NASQREE | QQYHRLPLS | GP_Gibbs | 0.18 0.29 0.00 -0.14 0.31 0.94 | 0/18 |
| NFEQKMALYTGDRSSIA | DKTIEAD | QQYSRLPIT | En_Gibbs | 1.23 1.44 1.33 1.03 0.86 1.24 | 0/18 |
| TISGLIMMPSRAKNSVA | NTSTRYQ | QQYHRLPLI | En_HC | 1.51 0.65 0.96 1.41 0.77 1.33 | 2/18 (2.93) |
| KLRHHNLDFYDFENNIA | GESMRAV | QQYYRLPLN | En_Gibbs | 1.79 1.73 1.64 2.11 2.26 2.45 | 2/18 (2.45) |
| KISQMVRVGSTHSNSIA | EEATRAK | QQYHRLPLF | En_Gen | 0.94 1.32 1.04 1.13 1.56 1.35 | 2/18 (2.95) |
| KLSQYVGGESRNKSSLA | DNNTRED | QQYERLPLS | En_HC | 2.28 1.71 1.55 1.73 1.63 2.05 | 5/18 (2.99) |
| KLQGSMPYESRMKNSVA | QASVRES | QQYHRLPLS | GP_Gibbs | 0.27 0.62 0.17 0.47 0.17 0.51 | 3/18 (2.22) |
| MVSQLMVWGMHARNSIA | EAQTRIN | QQYDRLPLF | En_Gen | n.d. 1.48 1.22 2.50 0.87 3.16 | 0/18 |
| KMSGSDMMLSRNWNSVA | QASTREQ | QQYHRLPLS | GP_Gibbs | 0.79 0.52 0.41 0.47 0.45 0.44 | 0/18 |
| NFYMDAAEFVNEDESIA | DAEISYD | QQYHRLPLV | En_Gibbs | n.d. 3.97 n.d. n.d. n.d. n.d. | 0/18 |
| KMSQSWLYEDWNKNSVA | QASQRMS | QQYHRLPLS | GP_Gibbs | 1.10 0.93 1.04 0.68 0.88 0.95 | 1/18 (2.83) |
| ATDHQEESGQEWEANVA | QDEQRVE | QQYHHLPLM | En_Gibbs | n.d. 2.04 n.d. n.d. n.d. n.d. | 0/18 |
| MFSQLVYTGSRTRNAVA | QASTREN | QQYHRLPLA | En_HC | 1.23 n.d. n.d. n.d. n.d. n.d. | 0/18 |
| SLYEMSVELSGKTHSVA | DNSTRGD | QQYFRLPLE | En_Gen | 0.88 1.01 0.72 0.37 0.35 0.49 | 0/18 |
| HISMSVGVTSFNKNSVA | ENSTREN | QQYDRLPLS | En_HC | n.d. 2.04 1.68 2.48 2.18 1.93 | 2/18 (2.64) |
| MVTQMAMTGMMSKRSVA | NATTREE | QQYHHLPLI | En_Gen | 0.73 0.60 0.79 0.51 0.79 1.09 | 2/18 (3.22) |
| TISSVMNHMTRINNNVA | NQDMREA | QQYDRLPLS | En_Gen | 0.88 0.01 0.32 -0.20 -0.13 -0.08 | 0/18 |
| HVSMLTLGGLKQRNSVA | QMTTREN | QQYDRLPLS | En_Gen | 0.89 0.87 0.54 0.25 0.41 0.81 | 0/18 |
| RLQIDDNGYIGMRNNVA | DGGMVRM | QQYARLPLM | En_Gibbs | 0.35 0.40 0.26 0.31 0.15 0.20 | 0/18 |
| KLSHYVGGESRNKSSLA | DNSTRES | QQYERLPLS | En_HC | 2.32 2.17 3.11 1.87 2.22 1.91 | 1/18 (3.74) |
| SIAESAHLESRNKNSVA | DNTTRES | QHYDRLPLS | En_HC | 2.09 n.d. n.d. n.d. n.d. n.d. | 0/18 |
| KLNDAWQGDIVNNQNIA | SADTLNH | QQYAKLPLS | En_Gibbs | 0.57 0.46 0.23 0.56 0.89 0.94 | 0/18 |
| RMNKFMSGATEAKNSMA | GQEHRAQ | QSYHRLPLS | En_Gibbs | 0.66 0.46 0.59 0.59 0.66 0.85 | 1/18 (2.72) |
| MFKMENEEFAQDKHSVA | EAVERES | QQYHRLPII | En_Gibbs | n.d. 0.50 0.83 0.55 0.59 0.49 | 0/18 |
| KITQTMRFEQKASNNIA | EVTLRSN | QQYYRLPLS | En_Gen | 1.07 1.44 1.30 1.24 1.23 1.51 | 2/18 (2.99) |
| SISMLLNFEMKIGNNVA | QMETRVN | QQYDRLPLS | En_Gen | 2.60 2.98 2.60 3.60 2.80 n.d. | 0/18 |
| LLQQDFYNERSQANAVA | DGNQLAS | QDYARLPLV | En_Gibbs | 1.10 0.98 1.64 1.22 1.06 1.01 | 0/18 |
| KLMQSWDYESRNKNSVA | DASKRMQ | QQYHRLPLS | GP_Gibbs | 0.12 0.06 0.00 -0.06 -0.12 0.27 | 1/18 (2.71) |
| MISQILNMGSFAINSVA | QASLRNE | QQYDRLPLT | En_Gen | n.d. n.d. n.d. n.d. n.d. n.d. | 0/18 |
| KLMQSMGYEQRNFNSVA | QASQRSQ | QQYHRLPLS | GP_Gibbs | n.d. n.d. n.d. n.d. n.d. n.d. | 0/18 |
| NLRGVEFESAMMGNAVA | DMSAVMA | QQYFMLPLH | En_Gibbs | n.d. 2.05 n.d. 3.09 n.d. 2.07 | 0/18 |
| MISQLFMYGSRQYNSVA | QASTREK | QQYDRLPLI | En_HC | 0.89 0.63 0.64 0.53 0.64 0.91 | 1/18 (3.16) |
| IAYGGDMLESVTRNSVA | NAETRAD | QDYHRLPLS | En_HC | 0.81 1.29 0.77 0.76 0.73 0.88 | 1/18 (2.35) |
| MMSQVTGQGYRHRNNVA | QTSTREP | QQYDRLPLI | En_Gen | 0.68 0.89 0.76 0.77 0.76 1.03 | 1/18 (2.76) |
| KFHMGWEMGSRWNDNIA | EANLRFS | QQYNRLPLF | En_Gibbs | 1.47 n.d. 0.90 1.97 n.d. 1.95 | 0/18 |
| KIGMTLNTLQHQKNNVA | DLVMREQ | QQYHRLPLS | En_Gen | 0.90 0.89 -0.20 0.33 -0.22 0.48 | 0/18 |
| KVGEMMAFLSSNRNNVA | DNSTRGS | QQYHRLPLS | En_HC | n.d. 1.88 1.42 n.d. n.d. 2.27 | 0/18 |
| KVSEFQRGLMSRQDSIA | DNVTRNS | QQYDRLPLS | En_Gen | n.d. n.d. 2.28 n.d. n.d. n.d. | 1/18 (3.16) |
| KVPQSHDYESRNMNSVA | NASERES | QQYHRLPLS | GP_Gibbs | 0.60 0.38 0.33 0.62 0.50 0.57 | 0/18 |
| MLSDVTNGMARKHNSVA | DNSTREK | QQYDRLPLS | En_Gen | 1.37 1.52 2.41 1.26 n.d. 1.48 | 0/18 |
| TISGVMQSVSHSKNNVA | EMNTRLE | QQYVRLPLA | En_Gen | 0.67 0.86 0.61 0.66 0.64 0.86 | 2/18 (2.55) |
| KLGDMVHTLSRDKNSIA | DMRTRES | QQYYRLPLS | En_HC | -0.13 0.08 -0.08 -0.31 -0.18 0.05 | 0/18 |
| QLYAVQDMTSKNNNSVA | EQSTREN | QQYHRLPLS | En_HC | 2.27 1.45 0.71 3.09 0.94 1.04 | 4/18 (3.37) |

Picked from the list: the 6 lowest averages where every replicate gave a value.

{"CDR-L1": "KLGDMVHTLSRDKNSIA", "CDR-L2": "DMRTRES", "CDR-L3": "QQYYRLPLS", "group": "En_HC", "replicates, log10 nM": "-0.13 0.08 -0.08 -0.31 -0.18 0.05", "control signals": "0/18"}
{"CDR-L1": "KLMQSWDYESRNKNSVA", "CDR-L2": "DASKRMQ", "CDR-L3": "QQYHRLPLS", "group": "GP_Gibbs", "replicates, log10 nM": "0.12 0.06 0.00 -0.06 -0.12 0.27", "control signals": "1/18 (2.71)"}
{"CDR-L1": "TISSVMNHMTRINNNVA", "CDR-L2": "NQDMREA", "CDR-L3": "QQYDRLPLS", "group": "En_Gen", "replicates, log10 nM": "0.88 0.01 0.32 -0.20 -0.13 -0.08", "control signals": "0/18"}
{"CDR-L1": "KLQQMWLYGSRNANSVA", "CDR-L2": "NASQREE", "CDR-L3": "QQYHRLPLS", "group": "GP_Gibbs", "replicates, log10 nM": "0.18 0.29 0.00 -0.14 0.31 0.94", "control signals": "0/18"}
{"CDR-L1": "RLQIDDNGYIGMRNNVA", "CDR-L2": "DGGMVRM", "CDR-L3": "QQYARLPLM", "group": "En_Gibbs", "replicates, log10 nM": "0.35 0.40 0.26 0.31 0.15 0.20", "control signals": "0/18"}
{"CDR-L1": "KIGMTLNTLQHQKNNVA", "CDR-L2": "DLVMREQ", "CDR-L3": "QQYHRLPLS", "group": "En_Gen", "replicates, log10 nM": "0.90 0.89 -0.20 0.33 -0.22 0.48", "control signals": "0/18"}

The range of this assay differs from that of the first round, and the authors advise against merging the two.
The parent sequence was in this pool as ten entries: three were never detected, three once, and four in most replicates, with averages from 0.34 to 2.37.
In the paper, a design with two or fewer of six values counts as a poor binder.
Nonspecific signal, from three strains lacking the peptide, appeared in 4% of pairings of all light chain designs, centred on 2.64 (5% of these signals below 1.59); values are not corrected for it. The control count says in how many pairings with the empty strains this scFv gave a signal, with their mean in brackets.